Experimental data taken from patent EP3795574A1, “SYNTHESIS AND USAGE OF 1,2-DIAMINODIAMANTANE PLATINUM(II) COMPLEXES” (Justus-Liebig-Universität Gießen, priority 2019, dated 2021).

How the values were obtained:
[1] = tested on: human ovarian cancer cell line A2780; assay: Cellular viability assay (resazurin / Alamar Blue, 72 h); conditions: A2780, 72 h at 37 °C, compared to cisplatin; result in words
[2] = Solubility of the complexes in solvents; conditions: most common solvents including N,N-dimethylformamide (DMF)

| Substance | cytotoxicity [1] | solubility [2] |
| --- | --- | --- |
| cis-[1,2-diaminodiamantane]dichlorideplatinum(II) | superior cytotoxicity compared to cisplatin |  |
| cis-[1,2-diaminodiamantane]oxalatoplatinum(II) |  | insoluble |
